Like-named read-outs stand apart in the source and are kept apart here.
Tests used:
[1] = test system: HCVcc-1a/2a-Rluc; test: microbe, parasite or virus in culture; type: cell-based, hepatitis C virus; details: read-out: EC50 of the individual inhibitor in combination experiments
[2] = test system: pseudovirus with MLV envelope proteins; type: cell-based
[3] = test system: genotype 1b HCVpp; test: microbe, parasite or virus in culture; type: cell-based; details: Hepatitis C virus
[4] = test system: HCVcc-1a/2a-Rluc; test: microbe, parasite or virus in culture; type: cell-based; details: Hepatitis C virus, Huh7.5, 72 h, read-out: EC50 HCVcc-1a/2a-Rluc
[5] = test system: HCVcc-1b/2a-Rluc; test: microbe, parasite or virus in culture; type: cell-based; details: Hepatitis C virus, Huh7.5, 72 h, read-out: EC50 HCVcc-1b/2a-Rluc
[6] = test system: HCVcc-2a/2a-Rluc; test: microbe, parasite or virus in culture; type: cell-based; details: Hepatitis C virus, Huh7.5, 72 h, read-out: EC50 HCVcc-2a/2a-Rluc
[7] = test system: genotype 1a HCV replicons; type: cell-based, hepatitis C virus genotype 1a
[8] = test system: genotype 1b HCV replicons; type: cell-based, hepatitis C virus genotype 1b
[9] = test system: HCVcc-1a/2a
[10] = test system: Influenza virus; test: microbe, parasite or virus in culture; details: unidentified influenza virus, MDCK, read-out: EC50 Influenza virus

## COC(=O)N[C@H](C(=O)N1CCC[C@H]1c1nc(-c2ccc(-c3ccc(-c4c[nH]c([C@@H]5CCCN5C(=O)[C@@H](NC(=O)OC)C(C)C)n4)cc3)cc2)c[nH]1)C(C)C [BMS-790052, reference compound]
[1]; Hepatitis C virus
  EC50: 0.021 nM

## CCCCCNc1nc(Nc2ccc([N+](=O)[O-])cc2)nc(OCC(F)(F)F)n1 [EI-1, N ^2-(4-nitrophenyl)-N ^4-pentyl-6-(2,2,2-trifluoroethoxy)-1,3,5-triazine-2,4-diamine]
[2]
  inhibition of pseudovirus with MLV envelope proteins (in words): not inhibited
[3]; read-out: EC50 range, genotype 1b HCVpp
  EC50: 5 to 200 nM
[3]; read-out: median EC50, genotype 1b HCVpp
  EC50: 27 nM
[4]
  EC50: 24 nM
[5]
  EC50: 12 nM
[6]
  EC50: 50.1 µM
[7]
  inhibition of genotype 1a HCV replicons (in words): no inhibition
[8]
  inhibition of genotype 1b HCV replicons (in words): no inhibition
[1]; Hepatitis C virus
  EC50: 39 nM
[1]
  EC50: 29 nM
[9]
  average infected cells/focus: 6 infected cells/focus
[10]
  EC50: > 50 µM

Reference: article PMC2936744 (PLoS Pathogens, 2010)
